In the library only some 13% were active in any assay of this set; here they are far more common.
G9a block = inhibitors of human histone lysine methyltransferase G9a. hit rate 8.8% among 350,000. AID 504332. G9a H3K9 monomethylation, AlphaScreen, 2 h. Potency, µM (titrated, usually from 102 µM), actives largely listed as inhibitors; also: nearly all actives have a fitted effect of over 75% in size
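Methyltransferase reactions run at room temperature for 2 h (20 nM enzyme, 500 nM biotin-H3K9 peptide, 20 uM SAM) after a 15 min compound preincubation; product detected by AlphaScreen beads and anti-H3K9me1 antibody.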
Lamin A splicing = changes lamin A minigene splicing in HeLa cells; HeLa LMNA splicing GFP/RFP minigene ratio, 48 h; hit rate 0.01% among 200,000; Potency, µM (top dose mostly 46.1 µM), actives largely listed as inhibitors; active = well fitted inhibition curve with a large enough effect in the signal ratio, with a control signal flat, not every such curve was filed as active; inconclusive = small, poorly fitted or top-dose-only effect, or effect the other way, or a change in a side signal; the % refers to the signal ratio
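S3 HeLa stable clones carrying a lamin A-EGFP splicing minigene plus DsRed2 were seeded at 600 cells/well in Opti-MEM with 2% FBS, pin-dosed and incubated 48 h at 37°C. Acumen cytometry (488 nm) gave the GFP/RFP total-intensity ratio.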
miR-21 reporter = miR-21 reporter, rising signal | HeLa miR-21 FLuc reporter, luciferase, 48 h | Potency, µM (top dose mostly 38.3 µM) | 340,000 tested, under 10 active | AID 2288; active = well fitted rising curve with a large enough effect; inconclusive = small, poorly fitted or top-dose-only effect; inactive = no such curve, though single readings can be large or run the other way;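 note: miR-21 action dims this reporter so a rising signal means less miR-21 action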
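HeLa cells endogenously expressing miR-21, stably carrying CMV-driven firefly luciferase with a downstream miR-21 binding site, 2000 cells/well. Titrations up to approximately 40 uM, 48 hours; luciferase luminescence read.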
KDM4E inh = JMJD2E (human) inhibition | B2RXH2 | JMJD2E catalytic domain, FDH-coupled NADH fluorescence (FDH is formaldehyde dehydrogenase) | hit rate 1.6% among 230,000 | Potency, µM (highest dose often 57.1 µM), hits mostly inhibitors; active = well fitted inhibition curve with a large enough effect, not every such curve was filed as active; inconclusive = small, poorly fitted or top-dose-only effect, or another doubt; inactive = no such curve, though single readings can be large or run the other way; also: nearly all actives have a fitted effect of over 50% in size
Sfp PPTase inh = blocks B. subtilis Sfp PPTase activity; Q9F4F7; Biochemical Sfp PPTase activity, qHTS; Potency, µM, usual class: inhibitors; hit rate 3.5% among 310,000; AID 1490;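 also: the enzyme is Sfp with the accession as filed and its product quenches rhodamine fluorescence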
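With Hepes-Na pH 7.6 buffer containing 10 mM MgCl2, Sfp (15 nM) modified BHQ-2-YbbR (12.5 uM) using rhodamine-CoA (5 uM). Two reads 30 minutes apart at 525/598 nm yielded each well's rate.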
ALDH1A1 block = blocks purified human ALDH1A1 activity | P00352 | Purified ALDH1A1, NADH fluorescence, propionaldehyde substrate | Potency, µM (titrated, usually from 75.3 µM), usual class: inhibitors | hit rate 7.3% among 220,000 | AID 1030; active = well fitted inhibition curve with a large enough effect, not every such curve was filed as active; inconclusive = small, poorly fitted or top-dose-only effect, or another doubt; inactive = no such curve, though single readings can be large or run the other way
A number is an active result; . = inactive; ? = inconclusive; / = no result given; [ ] = another dose, or the depositor's remark. Unless noted, calls follow the shape of the dose curve; as a rule, active = well fitted curve in the direction sought with a large enough effect; inconclusive = small, poorly fitted or top-dose-only effect, or another doubt; inactive = no such curve, though single readings can be large; an effect the other way counts as inactive or inconclusive.

SMILES	G9a block	Lamin A splicing	miR-21 reporter	KDM4E inh	Sfp PPTase inh	ALDH1A1 block
COc1ccc(C(=O)OCC(=O)c2ccc(C3CCCCC3)cc2)cc1	.	.	.	.	.	?
CC(=O)c1c(C)n([O-])c2cc(F)c(F)cc2[n+]1=O	.	.[9.22 µM]	?	.	.	.
COc1ccc2c(c1)[n+](=O)c(C(C)=O)c(C)n2[O-]	28µM	.	.	?	.	?
C/C(=N\NC(=O)Cc1ccccc1)c1ccc(Cl)s1	/	/	.	/	.	/
CC#C[C@@]1(O)CC[C@H]2[C@@H]3CCC4=CC(=O)CCC4=C3[C@H](c3ccc(N(C)C)cc3)C[C@]21C	5µM	?	/	.	.	.
CCc1nnc(NC(=O)c2sc3nc4c(cc3c2N)CCCCC4)s1	.	?	.	?	.	?
CCc1nnc(NC(=O)c2sc3nc4c(cc3c2N)CCCCCC4)s1	45µM	?	.	?	.	.
CCOc1ccc(NC(=O)CCc2nnc3ccc(N4CCC5(CC4)OCCO5)nn23)cc1	.	/	.	/	.	/
COCCNC(=O)c1c[nH]c2ccc(S(=O)(=O)N(C)c3ccc(C)c(C)c3)cc2c1=O	.	/	.	/	.	/
CCOC(=O)C1=C(N)Oc2c(c(=O)[nH]c3ccccc23)C1c1ccccc1 (stereo unspecified)	.	.	.	?	20µM	.
CC(=O)C1=C(c2ccccc2)OC(N)=C(C#N)C1c1ccc(O)cc1 (stereo unspecified)	?	?	.	.	.	20µM
COC(=O)C1=C(C)OC(N)=C(C#N)C1c1cc2cc(C)ccc2nc1Cl (stereo unspecified)	40µM	.	.	?	.	?
CC(=O)C1=C(C)OC(N)=C(C#N)C1c1cc2cc(C)c(C)cc2nc1Cl (stereo unspecified)	?	.	.	.	?	?
CCOC(=O)C1=C(C)OC(N)=C(C#N)C1c1ccccc1 (stereo unspecified)	?	/	.	.	.	22µM
Cn1cc(CCCC(=O)NCc2cccc(Br)c2)c2ccccc21	.	?	.	/	/	/
COC(=O)C1=C(C)OC(N)=C(C#N)C1c1ccccc1 (stereo unspecified)	.[2.33 µM]	.	.	.	.	?
CCOC(=O)C1=C(c2ccccc2)OC(N)=C(C#N)C1c1ccc(Cl)s1 (stereo unspecified)	?	.	.	?	.	1.8µM
CCOC(=O)C1=C(N)OC(CCl)=C(C#N)C1c1ccsc1 (stereo unspecified)	?	.	.	.	.	7.9µM
COC(=O)C1=C(C)OC(N)=C(C#N)C1c1ccc(OC)c(CSc2ccccn2)c1 (stereo unspecified)	16µM	.	.	.	.	?
Cc1cccc(CCNC(=O)CCc2c(C)nc3c(c(C)nn3-c3ccccc3)c2C)c1	.	/	.	/	/	/
O=C(NC(=S)N1CCCCC1)c1cccnc1	11µM	.	.	.	?	.
CCN(CC)C(=S)NC(=O)c1cccnc1	/	?	.	?	50µM	?
CCN(CC)C(=S)NC(=O)c1ccc(F)cc1	?	.	.	.	.	.
O=C(NC(=S)N1CCN(Cc2ccccc2)CC1)c1cccnc1	/	?	.	.	.	.
CCN(CC)c1ccc(C=O)c(OC)c1	/	/	.	.	?	4µM
SMILES	G9a block	Lamin A splicing	miR-21 reporter	KDM4E inh	Sfp PPTase inh	ALDH1A1 block
OCc1ccc(O)c2ncccc12	.[0.501 µM]	?	.	16µM	.	.
Oc1ccc(F)c2cccnc12	.	/	.	20µM	.	.
CCCOCc1ccc(O)c2ncccc12	.	/	.	14µM	.	/
CN(Cc1ccco1)Cc1ccc(O)c2ncccc12	1.4µM	/	/	/	/	/
CCCCCOc1ccc(Cn2c(=O)oc3ccccc32)cc1	.	/	.	/	/	/
Cc1onc(-c2ccccc2Cl)c1C(=O)Nc1ccccc1O	.	/	.	/	.	/
Cc1c(C(=O)Nc2ccc(F)cc2F)oc2ccc3c(c12)C(=O)CC(C)(C)O3	.	/	.	/	/	/
COC(OC)c1nc(SCC(=O)Nc2cccc(Cl)c2)ncc1C(=O)O	/	/	.	.	.	28µM
COC(=O)c1ccc(C(NC(=O)c2ccco2)[C@]2(C)C[C@H]2C2CCCCC2)cc1 (stereo partly specified)	/	/	/	.	.	3.5µM
C[C@@]1(C(NC(=O)c2ccccc2)c2ccc(-c3ccccc3)cc2)C[C@H]1C1CCCCC1 (stereo partly specified)	/	/	/	.	.	.
CCN(CC)S(=O)(=O)c1cccc(-c2n[nH]c(=S)n2/N=C/c2ccc(OC(F)F)cc2)c1	1.8µM	.	.	.	?	?
CCN(CC)S(=O)(=O)c1cccc(-c2n[nH]c(=S)n2/N=C/c2ccc(Br)cc2)c1	?	?	.	.	.	.
CCN(CC)S(=O)(=O)c1cccc(-c2n[nH]c(=S)n2/N=C/c2ccc(OC)cc2)c1	?	?	.	?	79µM	?
O=S(=O)(NCC(c1ccco1)N1CCN(c2ccccc2F)CC1)c1ccccc1 (stereo unspecified)	.	?	.	.	.	?
COc1ccc(C)cc1S(=O)(=O)NCC(c1ccc(N(C)C)cc1)N1CCc2ccccc21 (stereo unspecified)	10µM	?	.	/	/	/
COc1cccc(C(=O)NCC(c2ccc(N(C)C)cc2)N2CCc3ccccc32)c1OC (stereo unspecified)	.[12.7 µM]	.	.	/	/	/
CN(C)c1ccc(C(CNS(=O)(=O)c2ccc(F)cc2)N2CCc3ccccc32)cc1 (stereo unspecified)	14µM	.	.	/	/	/
CN(C)c1ccc(C(CNS(=O)(=O)c2ccc(Br)cc2)N2CCCC2)cc1 (stereo unspecified)	18µM	.	.	/	/	/
O=S(=O)(NCC(c1ccco1)N1CCc2ccccc21)c1ccccc1 (stereo unspecified)	45µM	/	/	/	/	/
Cc1cc(C)c(S(=O)(=O)NCC(c2ccc(N(C)C)cc2)N2CCc3ccccc32)c(C)c1 (stereo unspecified)	11µM	?	.	/	/	/
CCNC(=S)Nc1cc2oc3ccccc3c2cc1OC	25µM	/	.	/	.	/
COc1cc2c(cc1NC(=O)COC(=O)CNS(=O)(=O)c1ccc(C)cc1)oc1ccccc12	40µM	.	.	.	.	.
O=C(NCC(c1ccc2c(c1)OCO2)N1CCOCC1)c1ccc(F)cc1 (stereo unspecified)	.	.	.	/	/	/
CCOC(=O)c1sc2ccccc2c1S(=O)(=O)N1CCN(c2cc(C)ccc2C)CC1	.	?	.	/	/	/
CC(NC(=O)CN(Cc1ccccc1)S(=O)(=O)c1ccccc1)c1cccnc1 (stereo unspecified)	.[2.33 µM]	/	/	/	/	/
CCOc1ccc(S(=O)(=O)N2CCN(c3ccccc3)CC2)c2cccnc12	.[2.33 µM]	.	.	.	.	28µM
CCOc1ccc(S(=O)(=O)Nc2cccc(C)c2)c2cccnc12	.	?	.	.	.	.

Screening data deposited in PubChem BioAssay by National Center for Advancing Translational Sciences (NCATS).
